Experimental data reported in ChEMBL document CHEMBL1131477, “Synthesis and biological activity of a novel series of nonsteroidal, peripherally selective androgen receptor antagonists derived from 1,2-dihydropyridono[5,6-g]quinolines” (J Med Chem, 1998).

Sequences of proteins named here, by UniProt entry; tags and fusion partners are left off. A change or cut given only in a name is not applied to a line headed by its entry.
UniProt P10275: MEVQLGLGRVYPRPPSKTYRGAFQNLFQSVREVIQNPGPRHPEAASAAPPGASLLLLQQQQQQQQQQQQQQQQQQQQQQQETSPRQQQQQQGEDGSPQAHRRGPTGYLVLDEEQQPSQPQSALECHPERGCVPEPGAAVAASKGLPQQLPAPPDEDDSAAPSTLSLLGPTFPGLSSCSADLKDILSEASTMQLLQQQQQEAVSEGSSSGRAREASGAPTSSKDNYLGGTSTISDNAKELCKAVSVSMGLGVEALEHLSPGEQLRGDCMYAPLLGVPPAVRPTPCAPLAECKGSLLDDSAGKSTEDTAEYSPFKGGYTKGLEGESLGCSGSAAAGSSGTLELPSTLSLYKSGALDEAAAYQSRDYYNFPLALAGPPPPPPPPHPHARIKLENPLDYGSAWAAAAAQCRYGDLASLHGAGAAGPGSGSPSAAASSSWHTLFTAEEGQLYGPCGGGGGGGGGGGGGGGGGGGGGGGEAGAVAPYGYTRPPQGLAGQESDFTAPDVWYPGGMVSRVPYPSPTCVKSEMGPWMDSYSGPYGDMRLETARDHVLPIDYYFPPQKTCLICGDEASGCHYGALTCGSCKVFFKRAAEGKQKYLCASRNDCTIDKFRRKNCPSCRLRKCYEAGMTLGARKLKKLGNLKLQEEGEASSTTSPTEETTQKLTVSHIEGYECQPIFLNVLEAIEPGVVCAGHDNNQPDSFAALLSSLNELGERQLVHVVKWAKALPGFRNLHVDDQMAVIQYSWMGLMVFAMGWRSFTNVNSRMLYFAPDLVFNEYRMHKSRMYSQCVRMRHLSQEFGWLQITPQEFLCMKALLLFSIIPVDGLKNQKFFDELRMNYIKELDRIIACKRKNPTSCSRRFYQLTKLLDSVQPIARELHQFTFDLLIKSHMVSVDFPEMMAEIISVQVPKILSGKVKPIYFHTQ

Legend:
Androgen receptor [1] = target: T1, Androgen receptor (Homo sapiens, UniProt P10275)
Androgen receptor [2] = target: T1, Androgen receptor; assay: biochemical

`CCC1(C)CCc2cc3c(C(F)(F)F)cc(=O)[nH]c3cc2N1` (configuration not stated) gave an IC50 (Androgen receptor [1]) of 23 nM and a Ki (Androgen receptor [2]) of 29 nM.
